Measured values from ChEMBL document CHEMBL3769321, “Design and evaluation of novel glutaminase inhibitors” (Bioorg Med Chem, 2016).

Tested on: MDA-MB-231
Experiment: Cytotoxicity against human MDA-MB-231 cells measured on 6th day by hemocytometry
Assay type: functional, cell-based

## O=C(Cc1cccc(OC(F)(F)F)c1)Nc1ccc(CCCCc2nnc(NC(=O)Cc3ccccn3)s2)nn1
  IC50: 33 nM
